Earlier results in PubChem BioAssay AID1811 (Shanghai Institute of Organic Chemistry, 2009).
The other results are listed elsewhere or left out. Active and inactive are the calls of the source. Where no limit is named, active and inactive come without a cut-off here.

Tested on: purine nucleoside phosphorylase
Assay: PubChem AID 1811
Details: PDB complex binding affinities from literature

Q: With `Nc1nc2c(ncn2[C@@H]2O[C@H](CO)[C@@H](O)[C@H]2O)c(=O)[nH]1` as the compound, how does the outcome read?
A: active
